What was measured:
[1] = Lipophilicity (logD7.4) determination according to the present invention, two 1-octanol/phosphate buffer solvent systems in 96 deep well plate, LC/MS; type: physicochemical; details: 1-octanol:phosphate buffer pH 7.4 at 5:95 and 50:50, 25° C., 3 hours shaking
[2] = Lipophilicity determination by a shake-flask method (Comparative Example), 1-octanol/phosphate buffer pH 7.4, LC/MS; type: physicochemical; details: 1-octanol / phosphate buffer solution pH 7.4, shaken 10 minutes

Famotidine
LogD Inventive determination method (Example) [1]: −0.8
LogD Shake-flask method (Comparative Example) [2]: −0.8

Reference: patent publication US20130261986A1, “METHOD FOR DETERMINING LIPOPHILICITY” (ASTELLAS PHARMA INC., priority 2010, published 2013)
